# Antibody variant affinities, Ab-95 light chain, assay 2

Binding partner: SARS-CoV-2 spike HR2 peptide, sequence PDVDLGDISGINAS.

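The parent was found by panning a naive human phage display library on the peptide. The library (AAYL52) carries one to three amino acid substitutions per variant, with no insertions or deletions. Affinity was read by AlphaSeq, a pooled yeast mating assay with surface-displayed partners. Binding brings cells together so that they mate, and sequencing counts the barcode pairs among the diploids. The ratio of observed to expected reads was calibrated, replicate by replicate, on BCL2-family standards whose Kd was known from biolayer interferometry. Each pool was mated in three replicate cultures.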

Parent scFv Ab-95: VH joined to VL by three GGGGS repeats. Changes lie in the light chain CDRs alone.
VH: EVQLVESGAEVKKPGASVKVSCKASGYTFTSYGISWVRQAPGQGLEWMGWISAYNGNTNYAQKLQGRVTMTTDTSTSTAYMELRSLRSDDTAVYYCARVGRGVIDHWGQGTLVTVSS
VL: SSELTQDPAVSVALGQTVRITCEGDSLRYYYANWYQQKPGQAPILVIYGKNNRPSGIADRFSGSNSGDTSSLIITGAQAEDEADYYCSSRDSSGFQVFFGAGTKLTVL

The parent's light chain CDRs are EGDSLRYYYAN, GKNNRPS, SSRDSSGFQVF; each variant's own CDRs replace them letter for letter.
Each Kd is an estimate from the mating assay, the geometric mean of the replicates in which the pair was seen; lower is stronger.
"no signal" means that the variant was in the library but no mating with the target was seen in any replicate; the authors take this as a sign of poor binding, and no number exists.

CDR-L1 | CDR-L2 | CDR-L3 | Kd | detected
VGDSLRCYYAN | GKNNRPS | SSRDSSGFQVF | 2.7 µM | 2 of 3
EGDSLRYYYAT | GKNCRPS | SSRDSSGFKVF | no signal | 0 of 3
EGDSLRYYYAV | GKNNRPS | SSVDSSGFQVH | 18 µM | 1 of 3
EGDSLRYYYEN | EKNNRPS | SSRDSSGFLVF | 21 µM | 2 of 3
EGDSLRYTYAN | GKNNRPS | KSRDHSGFQVF | no signal | 0 of 3
EGDTLRYYYAN | GKNNRES | SSRDSSGFLVF | no signal | 0 of 3
EGDSLRYYYAN | GKNNRPS | SSRFSSSFQRF | 160 nM | 3 of 3
DGDSLRYYYAN | GKNHRPS | SNRDSSGFQVF | 4.8 µM | 2 of 3
EGDSWRYYYAN | GKNNRFS | SSRDSSGFQPF | 15 µM | 2 of 3
EGTELRYYYAN | GKNNRPS | SSRTSSGFQVF | 19 µM | 3 of 3
EGDSLRYYYAN | GKNNHPS | SSRDSSGFQMG | 40 µM | 1 of 3
EGDSLRYYYAN | GMVNRPS | FSRDSSGFQVF | 78 µM | 2 of 3
EPDSLRYYYAN | GKNNRPS | SWRLSSGFQVF | 1.2 µM | 1 of 3
EGESLRYYYAD | GKNNRPS | SSRDSSGFFVF | 1.3 µM | 1 of 3
EGDSLRYYYAN | GKNNRPS | SSRVSTGFQVQ | 1.6 µM | 3 of 3
GGDSLREYYAN | GKNIRPS | SSRDSSGFQVF | 100 nM | 3 of 3
EGDSLRYYYAN | GKNNRPV | SSRDSIGRQVF | 380 nM | 3 of 3
EGDSLEYYYAN | GKNNRPS | SVRDSSGFQIF | 1.1 µM | 2 of 3
EGDNLRYYYVN | GKNNRPS | SSRDSSGFVVF | 1.6 µM | 2 of 3
EGDSLRYYYAN | GKNNRPK | CSRDSSGFFVF | 140 nM | 3 of 3
EGDSLRYYYAP | GKNNRPH | SSRDSSSFQVF | 38 µM | 1 of 3
EGDSLRYYQAN | GKNNRPS | ACRDSSGFQVF | 14 nM | 3 of 3
SGDSLRYYYAN | GCNNRPS | SSPDSSGFQVF | 1.7 µM | 3 of 3
EPDSLRYYYAN | GENNRPS | SSIDSSGFQVF | 4.2 µM | 1 of 3
EGDSLEYYYAN | GKNNRPS | TSRDSSGAQVF | 170 nM | 3 of 3
ECDFLRYYYAN | GVNNRPS | SSRDSSGFQVF | 390 µM | 1 of 3
EGDSNRYYYAN | CKNNRPS | SSADSSGFQVF | 4.8 µM | 1 of 3
EGDSRRYYYAN | GKNNRPS | SSRDSSGMQSF | 4.1 µM | 1 of 3
EGDSLRYWYAN | GKNNRPS | SLWDSSGFQVF | 720 nM | 3 of 3
EIWSLRYYYAN | GKNNRPS | SSRDLSGFQVF | 14 µM | 2 of 3
EGRSLRYYYAN | GKNNRPS | SSRDSAMFQVF | 3.8 µM | 1 of 3
EGDGLLYYYAN | GKNNRPS | SSRDCSGFQVF | 16 µM | 1 of 3
EGDSLRYYYAN | GKNNKPS | SSRDSSGFQYF | 2.6 µM | 3 of 3
EYDSLRYYYAN | GKNWRPT | SSRDSSGFQVF | 16 µM | 2 of 3
EGDSLRYYYAN | GENNRYS | HSRDSSGFQVF | 22 µM | 3 of 3
EGDSLGYYYAN | GKNNRPS | SYRDSSGMQVF | 93 nM | 3 of 3
EGVSLRYYLAN | GKNNRPS | MSRDSSGFQVF | 69 nM | 3 of 3
EGDRLRYYYAN | GKNNRPS | SSRDLSGEQVF | 1.3 µM | 2 of 3
EGDSLRYYYAN | GKFNRPS | SSRDGSSFQVF | 6.3 µM | 2 of 3
EGDSLRYYTAN | GKNNRYS | SSRDSLGFQVF | 8.6 µM | 1 of 3
EGDSLRYLYAN | GKNNRES | CSRDSSGFQVF | 8.1 µM | 1 of 3
EGDYLRYYYAN | GKNNRES | SHRDSSGFQVF | 1.5 µM | 3 of 3
EGDSLRMYSAN | GKNNRWS | SSRDSSGFQVF | 1.1 µM | 3 of 3
EGDSLRYVMAN | GKNNRPS | SSRDHSGFQVF | 99 nM | 3 of 3
EGDSLRFYYAN | GKNDRPS | SSRDSSGFQVN | 3.2 µM | 2 of 3
EGDSLRYYYAN | GKNNRPS | ISRDSSKFAVF | 580 nM | 3 of 3
EGDSLRYYYAN | GKNNRPS | YCRFSSGFQVF | 39 µM | 2 of 3
EGDSLRYYYAN | GKANRPI | SSRKSSGFQVF | 460 nM | 3 of 3
EGDSQRYYYAN | GKNNRPS | SKRDSSLFQVF | 24 µM | 2 of 3
EGDSLRYYYAN | GKNNRMD | SSRDLSGFQVF | 150 nM | 3 of 3
EGDSLNYYYAN | GKNNRPS | SSYDSIGFQVF | 270 µM | 1 of 3
EFDSLRYYYAN | GQNNRPS | SSRDSSGFQVH | 200 nM | 3 of 3
EGDAKRYYYAN | GKNNRPV | SSRDSSGFQVF | 410 nM | 2 of 3
ICDSLRYYYAN | GKNPRPS | SSRDSSGFQVF | 420 µM | 1 of 3
EGDSLNYYYAN | GKNNRPS | PSRDSSDFQVF | 160 µM | 1 of 3
EGDSLRYYYAN | GKQNRPS | SSRDSSGFQNF | 160 nM | 3 of 3
EGWSLRYTYAN | GKNNRPS | SSRDSCGFQVF | 140 nM | 3 of 3
EFDSLRYYYAN | GKNNRPS | SSRDSFTFQVF | no signal | 0 of 3
EGDSLRYYYAN | GWNNRPS | SSRDSSGFQVM | 19 µM | 1 of 3
EGDSLRYYYAN | GKNNRPS | SQNDSSGWQVF | 180 nM | 3 of 3
EGCCLRYYYAN | GKNNRPS | SSTDSSGFQVF | 9.4 µM | 2 of 3
EGDELRYYYAN | GKNNRPS | SSRDSSGFQVI | 880 nM | 3 of 3
EGDVLRYYYAN | GKNNRHS | TSRDSSGFQVF | 13 µM | 2 of 3
EGDSLRYYYAN | GKNNRPS | SSRDSRRFQVF | 490 nM | 3 of 3
WGDGLRYYYAN | GKNNRPS | SSRDSSGFQWF | no signal | 0 of 3

Again, the first 5 entries without any signal:

CDR-L1,CDR-L2,CDR-L3,Kd,detected
EGDSLRYYYAT,GKNCRPS,SSRDSSGFKVF,no signal,0 of 3
EGDSLRYTYAN,GKNNRPS,KSRDHSGFQVF,no signal,0 of 3
EGDTLRYYYAN,GKNNRES,SSRDSSGFLVF,no signal,0 of 3
EFDSLRYYYAN,GKNNRPS,SSRDSFTFQVF,no signal,0 of 3
WGDGLRYYYAN,GKNNRPS,SSRDSSGFQWF,no signal,0 of 3

Background: pairings of library AAYL52 with three empty control strains gave a value in 28% of cases (median 8.2 µM, 5th percentile 800 nM). Values in that range, when seen in few replicates, are hard to tell from nonspecific mating.
Parent in this assay: reference entry 200 nM, copy in this library 180 nM.

The measurements come from Engelhart et al. 2022 (doi:10.1038/s41597-022-01779-4) through the FLAb antibody collection.